Experimental data from patent US20140127127.

Tested on: L-pyroglutamyl-L-prolyl-L-arginine-p-nitroaniline hydrochloride

Thrombin (Sigma, T-3399)
Km: thrombin 188mU/mL, Km=106.2 µM

Trypsin (ICN / MP Biomedicals, #103140)
Km: 0.4 nM trypsin, Km=78.6 µM
